The values below come from ChEMBL document CHEMBL1141047, “4-Phenyl-1,2,3,6-tetrahydropyridine, an excellent fragment to improve the potency of PARP-1 inhibitors” (Bioorg Med Chem Lett, 2005).

By UniProt entry, the sequences of proteins in these tests, tags left out.
UniProt P09874, whole entry: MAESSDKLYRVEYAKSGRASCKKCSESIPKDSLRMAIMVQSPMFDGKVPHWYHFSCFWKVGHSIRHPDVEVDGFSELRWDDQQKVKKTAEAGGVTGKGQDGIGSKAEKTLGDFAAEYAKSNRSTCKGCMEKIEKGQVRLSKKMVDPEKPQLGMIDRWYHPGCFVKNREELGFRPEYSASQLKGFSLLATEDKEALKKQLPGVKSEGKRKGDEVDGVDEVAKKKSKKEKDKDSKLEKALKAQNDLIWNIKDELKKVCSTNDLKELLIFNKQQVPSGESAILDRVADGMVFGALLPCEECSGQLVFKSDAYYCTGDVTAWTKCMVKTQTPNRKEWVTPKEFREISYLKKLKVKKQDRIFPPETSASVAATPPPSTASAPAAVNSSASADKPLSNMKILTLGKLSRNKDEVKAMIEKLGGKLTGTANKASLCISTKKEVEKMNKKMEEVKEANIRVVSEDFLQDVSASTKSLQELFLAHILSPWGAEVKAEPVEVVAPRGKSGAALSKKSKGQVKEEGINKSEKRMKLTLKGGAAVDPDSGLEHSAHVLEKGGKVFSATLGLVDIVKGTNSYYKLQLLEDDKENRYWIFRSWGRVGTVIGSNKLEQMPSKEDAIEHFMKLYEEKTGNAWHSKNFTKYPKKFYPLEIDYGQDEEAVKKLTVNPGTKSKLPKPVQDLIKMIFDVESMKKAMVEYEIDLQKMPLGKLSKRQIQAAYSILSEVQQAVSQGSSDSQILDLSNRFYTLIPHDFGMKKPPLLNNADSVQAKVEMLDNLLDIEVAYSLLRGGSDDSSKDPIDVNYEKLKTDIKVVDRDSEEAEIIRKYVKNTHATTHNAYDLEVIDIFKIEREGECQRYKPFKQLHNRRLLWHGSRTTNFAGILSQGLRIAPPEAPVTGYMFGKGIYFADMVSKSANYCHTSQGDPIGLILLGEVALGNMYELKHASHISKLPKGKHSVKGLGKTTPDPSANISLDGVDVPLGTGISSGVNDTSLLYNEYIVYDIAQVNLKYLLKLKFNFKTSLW

The target in this experiment is Poly [ADP-ribose] polymerase 1 (Homo sapiens, UniProt P09874).

Molecule `O=c1[nH]c2cc(CN3CC=C(c4ccccc4)CC3)ccc2c2ccccc12` registered an IC50 of 16 nM.
